The chains behind the UniProt entries cited, without tags or fusion partners.
UniProt P93836, whole entry: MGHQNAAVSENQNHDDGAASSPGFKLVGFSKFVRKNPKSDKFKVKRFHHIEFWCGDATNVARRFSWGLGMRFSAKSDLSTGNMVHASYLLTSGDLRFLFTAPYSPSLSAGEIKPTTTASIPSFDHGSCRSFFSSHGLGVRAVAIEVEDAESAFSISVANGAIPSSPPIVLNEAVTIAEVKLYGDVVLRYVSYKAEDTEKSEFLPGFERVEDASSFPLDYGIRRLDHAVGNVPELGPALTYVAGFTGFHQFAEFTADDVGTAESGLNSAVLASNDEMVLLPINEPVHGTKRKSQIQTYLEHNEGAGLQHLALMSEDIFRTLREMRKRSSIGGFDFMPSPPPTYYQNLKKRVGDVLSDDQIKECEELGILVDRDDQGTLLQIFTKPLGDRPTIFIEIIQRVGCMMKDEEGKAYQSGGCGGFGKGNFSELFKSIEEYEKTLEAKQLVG

In PMC9459959, “Synthesis and Activity of 2-Acyl-cyclohexane-1,3-dione Congeners Derived from Peperomia Natural Products against the Plant p-Hydroxyphenylpyruvate Dioxygenase Herbicidal Molecular Target Site” (Plants, 2022):

Molecular target: HPPD (p-hydroxyphenylpyruvate dioxygenase) (Arabidopsis thaliana, UniProt P93836)
Assay: HPLC of homogentisate formed ([…] nm), dose-response
Details: read-out: I50app; 15 min incubation; slow tight-binding class; E. coli total soluble protein extract

Row | Structure (SMILES) | IC50 [nM]
1 | O=C1CCCC(O)=C1C(=O)CCc1ccc2c(c1)OCO2 | 970
2 | CC1(C)CC(=O)C(C(=O)CCc2ccc3c(c2)OCO3)=C(O)C1 | 3250
